Laboratory results taken from ChEMBL document CHEMBL3817793, “Recent Progress in the Discovery of Next Generation Inhibitors of Aromatase from the Structure-Function Perspective” (J Med Chem, 2016).

Chains of the proteins cited; added tags and fusions are not shown. Lines headed by an entry give the natural chain unless they say otherwise; changes in a name come on top.
UniProt P11511: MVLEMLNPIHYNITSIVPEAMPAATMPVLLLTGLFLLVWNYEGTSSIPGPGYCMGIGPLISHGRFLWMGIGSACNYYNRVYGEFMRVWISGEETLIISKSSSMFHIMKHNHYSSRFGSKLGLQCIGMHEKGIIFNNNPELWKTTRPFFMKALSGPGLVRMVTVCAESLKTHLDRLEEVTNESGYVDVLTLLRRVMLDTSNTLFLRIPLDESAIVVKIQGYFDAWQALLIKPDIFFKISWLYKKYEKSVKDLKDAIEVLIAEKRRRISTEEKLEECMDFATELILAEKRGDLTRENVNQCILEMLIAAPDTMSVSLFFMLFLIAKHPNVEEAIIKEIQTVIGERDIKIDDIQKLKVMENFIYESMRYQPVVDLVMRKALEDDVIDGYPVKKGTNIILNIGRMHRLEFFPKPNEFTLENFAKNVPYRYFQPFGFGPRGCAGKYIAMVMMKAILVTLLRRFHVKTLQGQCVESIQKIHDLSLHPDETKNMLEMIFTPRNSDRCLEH

Target: Aromatase (Homo sapiens, UniProt P11511)
Assay: Inhibition of human placental microsomal aromatase using testosterone as substrate assessed as formation of estradiol after 10 mins

IC50: 30 nM
Compound: CC/C(=C(\c1ccc(O)cc1)c1ccc(OCCN)cc1)c1ccccc1
